The values that follow come from PubChem BioAssay AID624204 (Sanford-Burnham Center for Chemical Genomics, 2012).

Protein sequences, listed by entry. Tags and fused reporters are not part of them. Residues count along the entry.
UniProt Q9P0U3, 419-644 limits assumed: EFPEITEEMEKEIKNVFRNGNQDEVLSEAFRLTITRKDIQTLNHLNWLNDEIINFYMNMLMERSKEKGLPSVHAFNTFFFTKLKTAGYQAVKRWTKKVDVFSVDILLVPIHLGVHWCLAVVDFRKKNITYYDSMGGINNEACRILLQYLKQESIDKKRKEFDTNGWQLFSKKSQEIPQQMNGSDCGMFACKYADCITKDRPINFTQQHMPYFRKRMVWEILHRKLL

Only a part is listed here, and it is no random draw. Active and inactive are the calls of the source.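 Rule for the calls: active = inhibition at least 30% at 10 µM, raw YFP signal under a set limit, fluorescence ratio 0.5 to 1.5; inactive = the rest.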

The target of the assay is Sentrin-specific protease 1 (Homo sapiens) (UniProt Q9P0U3). The assay is described as follows: blockers of SENP1 SUMO protease activity – biochemical, FRET, uHTS, primary screen (AID 624204).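 Note: 0% = enzyme with DMSO and 100% = no enzyme wells.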 As to conditions: recombinant SENP1 catalytic domain, CyPet-SUMO1-YPet FRET cleavage; at 10 µM; active compounds read high.
The term inhibition denotes the relative decrease from the control value, in per cent. Turning to `COc1cc(C(=O)NCC2(N3CCOCC3)CCCCC2)cc(OC)c1C`, the inhibition is inactive: -0.6%. For `CCCCn1nnnc1C(c1ccccc1)N1CCC(n2c(=O)[nH]c3ccccc32)CC1` (stereo not drawn) the value was inactive: 3.06%; for `O=C(NCC1(N2CCOCC2)CCCCC1)c1cc(Br)ccc1Cl`, inactive: 1.06%; for `O=c1[nH]c2ccccc2n1C1CCN(C(c2cccs2)c2nnnn2C2CCCCC2)CC1` (stereo not drawn), inactive: -0.401%. The same measure for `O=c1[nH]c2ccccc2n1C1CCN(C(c2ccnc3ccccc23)c2nnnn2C2CCCC2)CC1` (stereo not drawn): inactive: 2.06%; for `COc1ccc(C(=O)NCC2(N3CCOCC3)CCCCC2)cc1OC`: inactive: -0.867%; for `COc1cccc(C(c2nnnn2C(C)(C)C)N2CCC(n3c(=O)[nH]c4ccccc43)CC2)c1OC` (stereo not drawn): inactive: 2.28%.

Regarding `CCOC(=O)N1CCC(Nc2ccc(C)cc2)CC1`, the inhibition was inactive: -0.808%. In the case of `N/C(=N\O)c1c(N)no[n+]1[O-]`, the inhibition was inactive: -0.0533%.

As to `O=c1[nH]c2ccccc2n1C1CCN(C(c2cccs2)c2nnnn2C2CCCC2)CC1` (stereo not drawn), the inhibition was inactive: -0.907%.

On to `O=C(OC1CN2CCC1CC2)C1c2ccccc2C=Cc2ccccc21` (stereo not drawn), for which the inhibition is inactive: 0.53%. For the compound `CCCCn1nnnc1C(c1cccc(OC)c1OC)N1CCC(n2c(=O)[nH]c3ccccc32)CC1` (stereo not drawn), the inhibition is inactive: 2.71%. The same measure for `N#Cc1ccc(C(=O)NCC2(N3CCCCC3)CCCCC2)cc1`: inactive: -0.0589%; for `CC(C)(C)OC(=O)N1CCC(N(C(=O)c2ccccc2)c2ccc(Cl)cc2)CC1`: inactive: -0.149%; for `CN(C)C1(CNC(=O)c2cccc(C#N)c2)CCCCC1`: inactive: 2.56%. Regarding `O=c1[nH]c2ccccc2n1C1CCN(C(c2ccccc2)c2nnnn2C2CCCC2)CC1` (stereo not drawn), the inhibition was inactive: 2.9%.

On to `CCCN1CCC(Nc2cc(OC)cc(OC)c2)CC1`, for which the inhibition is inactive: 14.3%. The same measure for `Cc1cc(N(CCCl)CCCl)ccc1C=O`: inactive: 1.18%; for `c1ccc(CN2CCC(Nc3ccccc3)CC2)cc1`: inactive: -3.19%. The same measure for `CC(C)(C)n1nnnc1C(c1cccc2ccccc12)N1CCC(n2c(=O)[nH]c3ccccc32)CC1` (stereo not drawn): inactive: 1.33%; for `CCC(c1nnnn1C1CCCCC1)N1CCC(n2c(=O)[nH]c3ccccc32)CC1` (stereo not drawn): inactive: 3.28%.

Take `CC(=O)N(c1ccccc1)C1CCNCC1`: the inhibition was inactive: 2.54%. The same measure for `COc1cccc(C(c2nnnn2C2CCCCC2)N2CCC(n3c(=O)[nH]c4ccccc43)CC2)c1OC` (stereo not drawn): inactive: 0.342%; for `O=c1[nH]c2ccccc2n1C1CCN(C(c2ccnc3ccccc23)c2nnnn2C2CCCCC2)CC1` (stereo not drawn): inactive: -1.45%; for `COc1cc(OC)cc(C(=O)NCC2(N3CCCCC3)CCCCC2)c1`: inactive: 0.49%.

On to `Fc1ccccc1NC1CCN(Cc2ccccc2)CC1`, for which the inhibition is inactive: 1.67%.

Take `Cc1ccc(C(=O)NCC2(N3CCCCC3)CCCCC2)o1`: the inhibition was inactive: 0.745%. The same measure for `Cc1ccc(NC2(C#N)CCN(Cc3ccccc3)CC2)cc1`: inactive: 1.72%; for `CC(C)(C)n1nnnc1C(c1ccnc2ccccc12)N1CCC(n2c(=O)[nH]c3ccccc32)CC1` (stereo not drawn): inactive: 0.941%; for `COc1ccc(C(c2nnnn2C2CCCCC2)N2CCC(n3c(=O)[nH]c4ccccc43)CC2)cc1` (stereo not drawn): inactive: 4.2%.

For `CCN1CCC(Nc2cccc(F)c2)CC1`, the inhibition is inactive: -0.187%.

As to `Cc1ccccc1NC1(C#N)CCN(Cc2ccccc2)CC1`, the inhibition was inactive: 1.02%. For `Cn1c(=O)[nH]cc(N(CCCl)CCCl)c1=O` the value was inactive: 0.462%; for `CN(C)c1ccc(C(=O)NCC2(N3CCCCC3)CCCCC2)cc1`, inactive: 1.32%; for `O=C(NCC1(N2CCCCC2)CCCCC1)c1ccco1`, inactive: 0.509%. For `CN1CCC(Nc2ccc(F)c(Cl)c2)CC1` the value was inactive: 3.6%; for `CCOc1ncccc1C(=O)NCC1(N2CCOCC2)CCCCC1`, inactive: -0.138%. The same measure for `NN(c1ccccc1)C1CCN(CCc2ccccc2)CC1`: inactive: 2.03%. With `O=C(O)C1(Nc2ccccc2)CCN(Cc2ccccc2)CC1`, the inhibition was inactive: -13.6%. The same measure for `CC(C)(C)OC(=O)N1CCC(Nc2ccccc2)CC1`: inactive: -0.677%; for `CCCOc1ccc(C(=O)NCC2(N(C)C)CCCCC2)cc1`: inactive: -0.544%; for `O=c1[nH]c2ccccc2n1C1CCN(C(c2cc3ccccc3o2)c2nnnn2C2CCCC2)CC1` (stereo not drawn): inactive: 0.789%. For `COc1cccc(C(=O)N(c2cc(C)cc(C)c2)C2CCN(C(=O)OC(C)(C)C)CC2)c1` the value was inactive: 3.12%. The same measure for `COc1cccc(C(c2nnnn2C2CCCC2)N2CCC(n3c(=O)[nH]c4ccccc43)CC2)c1OC` (stereo not drawn): inactive: -1.82%. With `COc1cc(OC)cc(C(=O)NCC2(N3CCOCC3)CCCCC2)c1`, the inhibition is inactive: 3.48%. The same measure for `CCC(CO)(C(=O)OC1CN2CCC1CC2)c1ccccc1` (stereo not drawn): inactive: 3.55%. The same measure for `CN1CCC(Nc2ccc(Cl)cc2)CC1`: inactive: 1.61%. With `CCC(c1nnnn1C1CCCC1)N1CCC(n2c(=O)[nH]c3ccccc32)CC1` (stereo not drawn), the inhibition is inactive: -0.913%. For `COc1ccc(C(=O)NCC2(N3CCCCC3)CCCCC2)c(OC)c1OC`, the inhibition was inactive: -0.0193%.

Regarding `CC(C)(C)OC(=O)N1CCC(N(C(=O)c2ccccc2)c2ccc(F)cc2)CC1`, the inhibition was inactive: 3.42%. For `COc1ccc(C(=O)NCC2(N3CCCCC3)CCCCC2)cc1` the value was inactive: -19.9%; for `CCCCn1nnnc1C(c1cccs1)N1CCC(n2c(=O)[nH]c3ccccc32)CC1` (stereo not drawn), inactive: -0.262%. For `CCCCn1nnnc1C(CC)N1CCC(n2c(=O)[nH]c3ccccc32)CC1` (stereo not drawn) the value was inactive: 2.81%; for `O=C(NCC1(N2CCCCC2)CCCCC1)c1cccs1`, inactive: -18.9%; for `O=C(NCC1(N2CCCCC2)CCCCC1)c1ccc(=O)[nH]c1`, inactive: 2.32%.

Turning to `Cc1cccc(NC2(C#N)CCN(Cc3ccccc3)CC2)c1`, the inhibition is inactive: -2.53%. For the compound `CSc1ccccc1C(=O)NCC1(N2CCCCC2)CCCCC1`, the inhibition was inactive: -27.4%. For `Cc1cc(C)cc(N(C(=O)c2ccccc2)C2CCN(C(=O)OC(C)(C)C)CC2)c1` the value was inactive: 2.53%. For `O=c1[nH]c2ccccc2n1C1CCN(C(c2ccccc2OC(F)(F)F)c2nnnn2C2CCCCC2)CC1` (stereo not drawn) the value was inactive: 1.15%; for `O=C(NCC1(N2CCCCC2)CCCCC1)c1ccc(Cl)nc1`, inactive: -9.17%. For `O=C(NCC1(N2CCOCC2)CCCCC1)c1cc2ccccc2o1` the value was inactive: -7.06%; for `COc1ccc(Cl)cc1C(=O)NCC1(N2CCOCC2)CCCCC1`, inactive: 2.02%. For `O=c1[nH]c2ccccc2n1C1CCN(C(c2cc3ccccc3o2)c2nnnn2C2CCCCC2)CC1` (stereo not drawn), the inhibition is inactive: 0.677%.

Regarding `O=C(OC1CN2CCC1CC2)C1c2ccccc2Oc2ccccc21` (stereo not drawn), the inhibition was inactive: 3.1%. Turning to `N#CC1(Nc2ccccc2)CCN(Cc2ccccc2)CC1`, the inhibition was inactive: -0.745%. For `O=C(NCC1(N2CCCCC2)CCCCC1)c1ccc(Cl)s1` the value was inactive: -5.17%. For `CCCCn1nnnc1C(c1ccc(OC)cc1)N1CCC(n2c(=O)[nH]c3ccccc32)CC1` (stereo not drawn) the value was inactive: 2.5%; for `CCOC(=O)N1CCC(Nc2ccc(OC)cc2)CC1`, inactive: -1%.

`O=C1CCN(Cc2ccccc2)CC1`: the inhibition is inactive: -28.1%. `CC(C)(C)n1nnnc1C(c1ccccc1)N1CCC(n2c(=O)[nH]c3ccccc32)CC1` (stereo not drawn): the inhibition was inactive: 0.205%.

In the case of `CCOc1ccc(C)cc1CN(CCCl)CCCl`, the inhibition was inactive: 2.63%. For `CCOC(=O)N1CCC(Nc2ccc(F)cc2)CC1` the value was inactive: 0.32%; for `COc1ccc(NC2CCN(CCc3ccccc3)CC2)c(OC)c1`, inactive: 1.76%; for `O=C(NCC1(N2CCCCC2)CCCCC1)c1ccc(F)cc1`, inactive: 1.31%. The same measure for `CCCCOc1ccc(C(=O)NCC2(N3CCOCC3)CCCCC2)cc1`: inactive: 0.236%; for `O=P1(N(CCCl)CCCl)SCCCS1`: inactive: 5.22%; for `CCCCn1nnnc1C(c1cc2ccccc2o1)N1CCC(n2c(=O)[nH]c3ccccc32)CC1` (stereo not drawn): inactive: -0.414%. As to `O=c1[nH]c2ccccc2n1C1CCN(C(c2ccccc2)c2nnnn2C2CCCCC2)CC1` (stereo not drawn), the inhibition was inactive: 3.31%. The same measure for `COc1cc(C(=O)NCC2(N(C)C)CCCCC2)ccc1OC(F)F`: inactive: 5.04%. For `CCOC(=O)N1CCC(Nc2cccc(C)c2)CC1` the value was inactive: 1.26%; for `O=c1[nH]c2ccccc2n1C1CCN(C(c2cccc3ccccc23)c2nnnn2C2CCCC2)CC1` (stereo not drawn), inactive: 1.06%; for `O=C(NCC1(N2CCCCC2)CCCCC1)c1ccc(OC(F)F)cc1`, inactive: -33.2%.

In the case of `CC(C)(C)n1nnnc1C(c1ccccc1OC(F)(F)F)N1CCC(n2c(=O)[nH]c3ccccc32)CC1` (stereo not drawn), the inhibition was inactive: 3.14%. The same measure for `N#CC1(Nc2ccccc2)CCN(CCc2ccccc2)CC1`: inactive: 0.726%; for `O=c1[nH]c2ccccc2n1C1CCN(C(c2ccccc2OC(F)(F)F)c2nnnn2C2CCCC2)CC1` (stereo not drawn): inactive: 4.18%; for `CCN1CCC(Nc2ccc(Cl)cc2)CC1`: inactive: -2.38%.

Take `CSc1ccc(C(=O)NCC2(N3CCOCC3)CCCCC2)cc1`: the inhibition was inactive: 2.42%. For `O=C(NCC1(N2CCCCC2)CCCCC1)c1cccc([N+](=O)[O-])c1`, the inhibition is inactive: 1.48%. Turning to `O=C(NCC1(N2CCCCC2)CCCCC1)c1cccc(C(F)(F)F)c1`, the inhibition is inactive: 0.454%. For `O=C(NCC1(N2CCOCC2)CCCCC1)c1cc(=O)[nH]c2ccccc12` the value was inactive: 0.534%; for `COc1cc(C(=O)NCC2(N3CCCCC3)CCCCC2)ccc1OC(F)F`, inactive: -17.1%. For `CCCCn1nnnc1C(c1cccc2ccccc12)N1CCC(n2c(=O)[nH]c3ccccc32)CC1` (stereo not drawn), the inhibition is inactive: 0.586%. As to `COc1ccc(NC2CCN(C(=O)OC(C)(C)C)CC2)cc1`, the inhibition is inactive: 1.86%. Regarding `CC(C)c1ccc(C(=O)NCC2(N3CCOCC3)CCCCC2)cc1`, the inhibition is inactive: 1.25%. For `CN1CCN(CCOC(=O)C(O)(c2ccccc2)c2ccccc2)CC1` the value was inactive: 1.2%; for `CC(C)c1ccc(NC2CCN(C(=O)OC(C)(C)C)CC2)cc1`, inactive: 0.519%; for `CCCCn1nnnc1C(c1ccccc1OC(F)(F)F)N1CCC(n2c(=O)[nH]c3ccccc32)CC1` (stereo not drawn), inactive: 1.76%. Consider `CN(C)c1cccc(C(=O)NCC2(N3CCCCC3)CCCCC2)c1`, for which the inhibition was inactive: -0.396%.

Regarding `COc1ccc(CN(CCCl)CCCl)cc1Cl`, the inhibition is inactive: 0.109%. The same measure for `CCC(c1nnnn1C(C)(C)C)N1CCC(n2c(=O)[nH]c3ccccc32)CC1` (stereo not drawn): inactive: 1.42%.

On to `O=C(NCC1(N2CCOCC2)CCCCC1)c1cc(F)c(F)cc1Cl`, for which the inhibition was inactive: 0.952%. For `COc1cc(OC)c(C(=O)NCC2(N(C)C)CCCCC2)cc1OC` the value was inactive: 3.18%.

For the compound `CCCCn1nnnc1C(c1ccnc2ccccc12)N1CCC(n2c(=O)[nH]c3ccccc32)CC1` (stereo not drawn), the inhibition is inactive: 3.3%. For the compound `O=C(NCC1(N2CCCCC2)CCCCC1)c1cncc(Br)c1`, the inhibition is inactive: -1.28%. In the case of `CN1CCC(Nc2cccc(F)c2)CC1`, the inhibition was inactive: -1.3%. Regarding `COc1ccc(C(c2nnnn2C2CCCC2)N2CCC(n3c(=O)[nH]c4ccccc43)CC2)cc1` (stereo not drawn), the inhibition was inactive: 1.9%. On to `CCCOc1ccc(C(=O)NCC2(N(C)C)CCCCC2)cc1OC`, for which the inhibition is inactive: 1.76%. For `Cc1ccc(C(=O)NCC2(N(C)C)CCCCC2)o1` the value was inactive: 1.62%.
